Experimental data from patent publication US8957074B2 (Novartis AG, priority 2010, dated 2015).

Chains of the proteins cited; added tags and fusions are not shown. Lines headed by an entry give the natural chain unless they say otherwise; changes in a name come on top.
UniProt P06493, whole entry, species assumed: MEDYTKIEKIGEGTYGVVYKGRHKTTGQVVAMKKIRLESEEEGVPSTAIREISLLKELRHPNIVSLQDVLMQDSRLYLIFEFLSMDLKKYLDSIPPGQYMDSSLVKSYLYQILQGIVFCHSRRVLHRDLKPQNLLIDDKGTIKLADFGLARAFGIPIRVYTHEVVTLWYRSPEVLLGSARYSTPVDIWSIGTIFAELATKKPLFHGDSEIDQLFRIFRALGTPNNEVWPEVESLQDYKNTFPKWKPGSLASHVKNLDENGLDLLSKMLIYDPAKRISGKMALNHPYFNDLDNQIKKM
UniProt P11802: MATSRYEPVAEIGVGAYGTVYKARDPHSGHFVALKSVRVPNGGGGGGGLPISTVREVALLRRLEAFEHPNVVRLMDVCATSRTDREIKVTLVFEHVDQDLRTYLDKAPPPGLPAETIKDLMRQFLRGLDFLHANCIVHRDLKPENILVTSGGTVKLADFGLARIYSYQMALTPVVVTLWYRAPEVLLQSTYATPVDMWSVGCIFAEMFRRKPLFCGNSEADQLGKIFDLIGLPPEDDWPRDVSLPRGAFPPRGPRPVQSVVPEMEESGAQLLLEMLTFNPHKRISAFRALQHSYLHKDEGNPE

Assays:
[1] = target: CDK1/cyclin B (Homo sapiens (Human), UniProt P06493); assay: CDK1/cyclin B enzymatic activity assay (IMAP-FP); details: 0.25 nM CDK1/cyclin B, 100 nM Tamra Histone-H1 peptide, 20 μM ATP, 120 min at room temperature; read-out: Biochemical CDK1 enzyme IC50
Text: CDK1/Cyclin B Enzymatic Activity Assay
A 384-well microtiter IMAP-FP™ (Molecular Devices Trade Mark Technology) endpoint assay was used for CDK1/cyclin B kinase activity measurements. The same assay was used for IC50 determination of small molecule inhibitors.

[2] = target: CDK4/cyclin D1 (Homo sapiens (Human), UniProt P11802); assay: CDK4/cyclin D1 enzymatic activity assay (TR-FRET, phosphorylation of pRb at Ser780); format: biochemical
Experimental: CDK4/Cyclin D1 Enzymatic Activity Assay
An assay for monitoring CDK4/cyclin D1-catalyzed phosphorylation of pRb at the Ser780 site was performed using TR-FRET in a 384-well format, and was used for IC50 determination and kinetic analysis. […] 3 μM ATP was added last to initiate the reaction. The reaction was quenched with 10 μL of 240 mM EDTA-Na (pH 8.0) after 60 min incubation at 22° C.
Human CDK4/cyclin D1 was expressed in Sf21 cells via baculovirus infection.

| SMILES | IC50 [1] [µM] | IC50 [2] [µM] |
| --- | --- | --- |
| CN(C)C(=O)c1cc2cnc(Nc3ccc(C(=O)N4CCC5CCC(C4)N5)cn3)nc2n1C1CCCC1 (racemic) [Example 69, 7-Cyclopentyl-2-[5-(3,9-diaza-bicyclo[4.2.1]nonane-3-carbonyl)-pyridin-2-ylamino]-7H-pyrrolo[2,3-d]pyrimidine-6-carboxylic acid dimethylamide] | > 15 |  |
| CN(C)C(=O)c1cc2cnc(Nc3ccc(C(=O)N4CC5CCCC(C4)N5)cn3)nc2n1C1CCCC1 [Example 52, 7-Cyclopentyl-2-[5-(3,9-diaza-bicyclo[3.3.1]nonane-3-carbonyl)-pyridin-2-ylamino]-7H-pyrrolo[2,3-d]pyrimidine-6-carboxylic acid dimethylamide] | > 15 |  |
| CN(C)C(=O)c1cc2cnc(Nc3ccc(C(=O)N4CC5CCC(C4)N5)cn3)nc2n1C1CCC1 [Example 55, 7-Cyclobutyl-2-[5-(3,8-diaza-bicyclo[3.2.1]octane-3-carbonyl)-pyridin-2-ylamino]-7H-pyrrolo[2,3-d]pyrimidine-6-carboxylic acid dimethylamide] | > 15 | 0.014 to 0.036 |
